Chains of the proteins cited; added tags and fusions are not shown.
UniProt O14578, whole entry: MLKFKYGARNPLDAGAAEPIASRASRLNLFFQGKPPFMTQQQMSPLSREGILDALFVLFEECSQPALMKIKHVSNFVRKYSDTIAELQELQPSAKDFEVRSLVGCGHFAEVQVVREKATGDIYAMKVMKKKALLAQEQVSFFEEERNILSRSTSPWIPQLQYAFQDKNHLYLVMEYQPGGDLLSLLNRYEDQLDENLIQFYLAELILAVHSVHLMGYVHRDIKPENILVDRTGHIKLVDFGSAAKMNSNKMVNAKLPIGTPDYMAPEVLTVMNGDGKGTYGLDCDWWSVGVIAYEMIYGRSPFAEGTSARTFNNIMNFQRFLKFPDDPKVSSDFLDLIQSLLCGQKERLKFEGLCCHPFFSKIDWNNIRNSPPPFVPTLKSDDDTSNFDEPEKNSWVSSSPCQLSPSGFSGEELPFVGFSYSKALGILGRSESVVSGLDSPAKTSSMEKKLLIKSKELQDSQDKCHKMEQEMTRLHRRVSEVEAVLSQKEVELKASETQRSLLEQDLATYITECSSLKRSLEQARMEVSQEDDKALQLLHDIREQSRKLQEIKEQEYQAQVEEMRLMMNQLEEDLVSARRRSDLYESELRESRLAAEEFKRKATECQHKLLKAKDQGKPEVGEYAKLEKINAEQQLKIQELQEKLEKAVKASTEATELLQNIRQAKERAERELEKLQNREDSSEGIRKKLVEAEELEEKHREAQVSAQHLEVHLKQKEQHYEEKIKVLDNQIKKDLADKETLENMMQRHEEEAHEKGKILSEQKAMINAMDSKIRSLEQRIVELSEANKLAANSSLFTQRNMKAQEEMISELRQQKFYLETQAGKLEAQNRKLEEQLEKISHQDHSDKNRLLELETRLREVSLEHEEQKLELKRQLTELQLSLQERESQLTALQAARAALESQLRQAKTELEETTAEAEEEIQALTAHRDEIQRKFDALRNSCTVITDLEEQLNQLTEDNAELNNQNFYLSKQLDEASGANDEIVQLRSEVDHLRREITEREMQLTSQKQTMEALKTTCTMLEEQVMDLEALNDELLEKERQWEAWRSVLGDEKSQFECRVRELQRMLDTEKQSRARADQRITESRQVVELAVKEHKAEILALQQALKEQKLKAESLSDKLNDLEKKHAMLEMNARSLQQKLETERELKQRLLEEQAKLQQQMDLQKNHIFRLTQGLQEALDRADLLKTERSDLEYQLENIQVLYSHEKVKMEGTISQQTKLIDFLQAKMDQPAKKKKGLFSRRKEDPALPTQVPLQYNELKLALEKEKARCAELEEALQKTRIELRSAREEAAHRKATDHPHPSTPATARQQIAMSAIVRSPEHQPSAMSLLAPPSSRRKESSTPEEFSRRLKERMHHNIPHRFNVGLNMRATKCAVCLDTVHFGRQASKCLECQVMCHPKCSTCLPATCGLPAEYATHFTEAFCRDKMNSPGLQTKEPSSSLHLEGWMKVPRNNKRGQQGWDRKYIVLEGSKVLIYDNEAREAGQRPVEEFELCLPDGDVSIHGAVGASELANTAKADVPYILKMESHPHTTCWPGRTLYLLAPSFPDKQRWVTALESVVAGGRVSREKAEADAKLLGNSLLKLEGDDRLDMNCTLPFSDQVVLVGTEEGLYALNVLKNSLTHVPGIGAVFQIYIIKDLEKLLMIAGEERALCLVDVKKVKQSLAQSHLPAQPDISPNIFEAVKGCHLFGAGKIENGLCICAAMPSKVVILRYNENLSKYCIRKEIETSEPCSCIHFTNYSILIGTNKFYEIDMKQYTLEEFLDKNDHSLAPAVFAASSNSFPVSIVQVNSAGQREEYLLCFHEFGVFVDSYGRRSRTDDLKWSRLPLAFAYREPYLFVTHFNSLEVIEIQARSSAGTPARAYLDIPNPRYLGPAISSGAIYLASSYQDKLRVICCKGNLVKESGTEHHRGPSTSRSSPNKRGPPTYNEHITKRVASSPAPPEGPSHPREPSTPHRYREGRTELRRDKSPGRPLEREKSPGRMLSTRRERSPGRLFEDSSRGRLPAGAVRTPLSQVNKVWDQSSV

According to ChEMBL document CHEMBL5723584 (2023):

What was measured:
[1] = target: T1, Citron Rho-interacting kinase (Homo sapiens, UniProt O14578); test: DSF (CITKKD-c014 hyperphosphorylated); settings: filed as antagonist
[2] = target: T1, Citron Rho-interacting kinase; test: DSF (CITKKD-c006 dephosphorylated); settings: filed as antagonist

- ΔTm [1]: 2.1 °C
- ΔTm [2]: 2.1 °C
Structure (SMILES): Cc1cc2c(-c3ccc(NC(=O)[C@H](N)CC(C)(C)C)cc3C)ccnc2[nH]1
